Data as given in PubChem BioAssay AID540263 (National Center for Advancing Translational Sciences (NCATS), 2011).
Out of some 340,000 compounds screened, about 100 (0.029%) were called active. Roughly 8% stayed inconclusive and do not appear here. What follows is part of a selection rich in actives, with near analogues and random picks from the rest. A number with no mark means an inactive call. The call rests on the fitted dose curve.

Chains of the proteins cited; added tags and fusions are not shown.
UniProt Q14974, whole entry, looked up: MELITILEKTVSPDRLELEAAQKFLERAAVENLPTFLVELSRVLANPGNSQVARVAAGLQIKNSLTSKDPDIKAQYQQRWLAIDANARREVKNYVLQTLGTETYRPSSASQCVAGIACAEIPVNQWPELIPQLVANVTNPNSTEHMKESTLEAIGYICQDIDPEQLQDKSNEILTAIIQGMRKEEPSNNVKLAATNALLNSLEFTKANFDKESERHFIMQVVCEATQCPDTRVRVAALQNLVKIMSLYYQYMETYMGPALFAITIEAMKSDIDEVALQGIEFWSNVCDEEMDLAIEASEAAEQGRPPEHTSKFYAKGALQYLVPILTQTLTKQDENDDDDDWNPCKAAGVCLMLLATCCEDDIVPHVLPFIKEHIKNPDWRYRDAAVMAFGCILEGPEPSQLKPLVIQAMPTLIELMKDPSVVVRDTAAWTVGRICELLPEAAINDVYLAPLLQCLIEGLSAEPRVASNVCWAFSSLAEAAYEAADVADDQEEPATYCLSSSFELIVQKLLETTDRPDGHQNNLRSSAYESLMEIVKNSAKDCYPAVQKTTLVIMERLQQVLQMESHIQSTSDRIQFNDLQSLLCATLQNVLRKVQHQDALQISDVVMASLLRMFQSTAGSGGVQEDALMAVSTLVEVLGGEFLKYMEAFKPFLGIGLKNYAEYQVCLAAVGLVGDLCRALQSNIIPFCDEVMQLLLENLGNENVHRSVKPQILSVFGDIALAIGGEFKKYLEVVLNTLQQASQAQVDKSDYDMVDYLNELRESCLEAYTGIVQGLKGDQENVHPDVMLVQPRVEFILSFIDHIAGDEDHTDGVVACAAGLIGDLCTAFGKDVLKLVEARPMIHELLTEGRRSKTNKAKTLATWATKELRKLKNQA

target: Importin subunit beta-1 (Homo sapiens) (UniProt Q14974); assay: qHTS Assay for Inhibitors of Rango (Ran-regulated importin-beta cargo) - Importin beta complex formation; details: Rango CFP/YFP FRET sensor + importin beta, 45 min; series mostly up to 92.2 µM; inhibition of complex formation: at the top concentration; further: nearly all actives have a fitted effect of over 15% in size;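 on inhibition of complex formation: 0% = DMSO wells and 100% = buffer wells lacking importin beta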
Excerpt: NIH Molecular Libraries Probe Production Centers Network [MLPCN] NIH Chemical Genomics Center [NCGC] MLPCN Grant: R03 MH090808-01A1 Assay Submitter (PI): Petr Kalab NCGC Assay Overview: The small GTPase Ran regulates transport of macromolecules between the nucleus and the cytoplasm (nuclear transport) and has important functions in mitotic spindle assembly, nuclear envelope (NE) formation and nuclear pore complex (NPC) assembly. RanGTP gradient is thought to promote spindle assembly by providing a spatial clue to microtubule nucleation and Aurora A activation. Because the localized release and binding of importin alpha cargo relays this spatial clue to SAFs, inhibitors of the Rango - importin beta complex can then be used in further understanding their role in cell cycle specifically in mitosis progression. […] Activation of Aurora A has been linked to different types of cancer and a number of Aurora kinase inhibitors are being developed as potential canter therapeutics therefore, identified inhibitors of this complex could be developed into potential anti-mitotic probes for cancer treatment. Purified recombinant proteins Rango and importin beta were provided by the assay submitter. The assay used a fluorescence resonance energy transfer (FRET) Rango biosensor that contains the IBB of human snurportin 1 flanked by yellow fluorescent protein (EYFP) at the amino terminus and cerulean CFP10 at the carboxy terminus. […] Inhibitors will therefore be identified based on the ability to interfere with the FRET signal decrease. DMSO treated and no importin beta (buffer only) wells were used as negative and positive controls respectively. FRET readings were obtained at two time points. FRET reading prior to importin beta addition (pre-read) were used flag potential compound interference; FRET reading after importin beta addition (post-read) were used to identify inhibitors using the FRET ratio parameter.
NCGC Assay Protocol Summary: Two and a half uL/well of Rango-buffer solution (50 nM Rango, 1x PBS, 1mM DTT, 0.02% Tween-20, 0.1% BSA final concentrations) was dispensed into 1536-well assay plates (Greiner, solid black medium-binding plates) with Aurora Discovery BioRAPTR Flying Reagent Dispenser (FRD; Beckton-Dickenson). Compound solution (23 nL) was transferred to the assay plate using Kalypsys pin tool equipped with a 1536-pin tool and incubated at room temperature for 5 min followed by a FRET pre-read using the PerkinElmer Envision plate reader. Two and a half uL/well of Importin beta - buffer solution (0.125 microM importin beta, 1x PBS, 1mM DTT, 0.02% Tween-20, 0.1% BSA final concentrations) were then added and incubated at room temperature giving a final reaction volume of 5uL. After 45min FRET post-read was obtained via the Envision plate reader using the same optics and settings as the pre-read (CFP/YFP optimized dual optical module D450/D505; excitation mirror CFP 430/24 nm; and emission filters CFP 486/10 nm and YFP 530/10 nm).
Potency means the concentration at half of the fitted maximal effect; tags describe the fitted curve by direction and shape.

Structure (SMILES) | inhibition of complex formation [%] | Potency
CC(C)=CCc1ccc(O)c(=O)cc1C(C)C | -0.975 | 
O=C(Nc1ccc2ccccc2c1[N+](=O)[O-])c1ccccc1 | 3.45 | 
COc1ccc(Cl)cc1C=CC=NNC(=O)c1ccncc1 | 4.63 | 
CC(C)(C)OC(=O)N1CCC(C(=O)Nc2cccc(C(=O)NCCc3ccccc3)c2)CC1 | 1.14 | 
COC1=CC(=O)OC(C)(c2ccccc2)C1 (stereo not drawn) | -1.43 | 
Cc1ccc(Nc2c(O)nc[nH]c2=O)cc1C | -7.42 | 
CCCN(CC(=O)Nc1ccccc1C)C(=O)c1ccc(OCC(=O)N2CCOCC2)c(OCC)c1 | -0.312 | 
COc1ccc(-c2ccc3c(c2)[C@@H]2C[C@H](N(C)S(=O)(=O)c4ccccc4)[C@H]([C@H](C)O)C(=O)N2CC3)cc1 | -1.31 | 
CC1(C)N=C(N)NC(Nc2ccc(Cl)cc2)=N1 | 2.24 | 
CN(C(=O)c1cccc(NC(=O)Cc2ccc(NC(=O)C3CCN(C(=O)C4CCCCC4)CC3)cc2)c1)C1CCC1 | -2.04 | 
CC(C)(C)c1nnc2sc(SCC(O)=C(C#N)c3nc4ccccc4[nH]3)nn2c1=O | 0.14 | 
Cc1ccc(S(=O)(=O)N2CCN(C(=O)c3cc(S(=O)(=O)N4CCOCC4)ccc3F)CC2)cc1 | -3.27 | 
Cc1nn(-c2ncccn2)c2c1C(=O)CC(C)(C)C2Br (stereo not drawn) | -3.68 | 
CCN(CC(=O)Nc1c(F)cccc1F)C(=O)Cc1cccs1 | -5.32 | 
NC(=O)c1ccc(N2CCCC2)nc1 | 0.637 | 
COc1cc2[nH]c(O)c(C=O)c2cc1OC | -0.216 | 
CC/C(=C\c1ccc(Cl)cc1)c1ccncc1 | 0.876 | 
COc1ccc(Cl)cc1C=CC=Nc1ccc(S(N)(=O)=O)cc1 | -2.29 | 
COc1ccc(CCNC(=O)c2ccc(NC(=O)CC3SC(N4CCCCC4)=NC3=O)cc2)cc1OC (stereo not drawn) | -3.12 | 
CSCCC(NC(=O)COc1ccccc1)C(=O)N1CCN(c2cccc(C(F)(F)F)c2)CC1 (stereo not drawn) | 4.24 | 
CCCCN1CC(COc2ccccc2)Oc2cccc(F)c2S1(=O)=O (stereo not drawn) | 2.87 | 
O=C(NN=Cc1ccccc1)c1ccccc1 | -2.28 | 

Structure (SMILES) | inhibition of complex formation [%] | Potency
O=C(Nc1c(Br)cc2c(c1Br)Cc1cc([N+](=O)[O-])ccc1-2)C(Cl)Cl | -0.563 | 
CC(=O)OC1CCC2C3CCC4=C(CC(F)C(=O)C4)C3CCC12C (stereo not drawn) | -1.03 | 
O=[N+]([O-])c1ccc(COc2ccccc2CN2CCOCC2)cc1 | 3.71 | 
COc1cccc(CC(=NO)c2cccc(OC)c2)c1 | -0.088 | 
NC(=O)C1(Nc2ccc(-c3ccccc3)cc2)CCCC1 | 0.958 | 
O=C(O)C(=Cc1ccccc1[N+](=O)[O-])c1ccccc1 | -0.207 | 
CCOC(=O)c1ccccc1NC(=O)CSc1nc2c(sc(=S)n2CC)c(=O)[nH]1 | 0.302 | 
O=C(CCCCCCCC(=O)N1CCCCC1)N1CCCCC1 | -2.28 | 
Nc1cc2c(cc1Br)-c1ccc(F)cc1C2=O | -2.11 | 
O=C1NC(c2ccccc2)Cc2ccncc21 (stereo not drawn) | 0.404 | 
Cc1ccc(OCCNC(=O)c2cccc(S(=O)(=O)N3CCN(Cc4ccccc4)CC3)c2)cc1 | 3.25 | 
O=C1CC(c2ccccc2)C(c2ccccc2)=NN1 (stereo not drawn) | -1.44 | 
Nc1ccc2c(c1)C(=Cc1cccnc1)c1ccccc1-2 | -0.161 | 
Oc1ccc(-c2nc3ccccc3nc2-c2ccc(O)cc2O)c(O)c1 | 1.75 | 
O=C(Nc1ccccc1)Oc1cccc2cccnc12 | -0.849 | 
O=[N+]([O-])c1ccc(NS(=O)(=O)c2ccccc2)c(Cl)c1 | -1.29 | 
O=C(Cc1ccc(Cl)cc1)c1ccccc1 | 3.5 | 
O=C1C(=O)N(c2ccccc2)C(c2ccccc2)C1c1ccccc1 (stereo not drawn) | 2.65 | 
Cc1cc([N+](=O)[O-])ccc1NS(=O)(=O)c1ccccc1 | 2.79 | 
O=C(c1ccc2c(c1)C(=O)N(Cc1ccncc1)C2=O)N1CCN(S(=O)(=O)c2ccc(OC(F)(F)F)cc2)CC1 | 5.12 | 
O=S(=O)(Cc1ccc(Cl)cc1Cl)c1ccc(Cl)cc1 | -2.04 | 
Cc1c(NS(=O)(=O)c2cccc(C(=O)Nc3ccc(SC(F)F)cc3)c2)c(=O)n(-c2ccccc2)n1C | -1.93 | 

Structure (SMILES) | inhibition of complex formation [%] | Potency
C[n+]1cccc(C(=O)O)c1 | 8.24 | 
CCCCN(C(=O)c1cccc(N2C(=O)c3ccccc3C2=O)c1)c1c(N)n(CCCC)c(=O)[nH]c1=O | -5.63 | 
CSCCC(NS(=O)(=O)c1ccc(C)cc1)C(=O)N(C)CC(=O)Nc1ccccc1Br (stereo not drawn) | -2.58 | 
COc1ccccc1NC(=O)N(O)C1(C#N)CCCCC1 | 6.65 | 
O=C(Nc1c[nH]c(=O)[nH]c1=O)OCc1ccccc1 | -3.52 | 
COc1cc2c(cc1OC)C(Cc1cc(OC)c(OC)cc1[N+](=O)[O-])=NCC2 | -4.04 | 
CN(O)C(=S)c1ccccc1 | 0.436 | 
Cc1ccc(S(=O)(=O)c2cc3c(=O)n4cccc(C)c4nc3n(CCc3ccccc3)c2=N)cc1C | -0.419 | 
O=C1OC(Oc2ccc(Br)cc2)(c2ccccc2)c2ccccc21 (stereo not drawn) | 4.41 | 
N#CC1(Nc2ccc(-c3ccc(Cl)cc3)cc2)CCCC1 | -0.935 | 
C#CCOCCOCCOCCNc1nc(N2CCN(C(=O)Cn3cc(CCO)nn3)CC2)nc(N2CCN(C(=O)[C@H](CCCCN)n3cc(CCCC)nn3)CC2)n1 | 2.5 | 
O=S1(=O)CCOC[C@H](Cc2ccccc2)N1Cc1ccccc1Br | 1.72 | 
Cc1nc2ccccc2c(C(=O)O)c1-c1ccccn1 | -3.52 | 
Cc1ccc(Oc2nc(-c3ccccn3)nc3ccccc23)cc1 | 1.95 | 
CC(C)(C)Nc1nc(-c2ccccn2)nc2ccccc12 |  | 58 µM (active)
COc1cc2c(cc1CNC[C@H]1O[C@@H](n3cnc(C(N)=O)n3)[C@H](O)[C@@H]1O)OCO2 | 0.344 | 
NC1=NOC(=O)C1C1CCCCC1 (stereo not drawn) | 2.74 | 
NC(=S)NN=C1CCCC(C(F)(F)F)C1 (stereo not drawn) | 0.299 | 
O=C(OC12CC3CC(CC(C3)C1)C2)c1ccc(NCc2cc(O)ccc2O)cc1 | 0.607 | 
O=C(O)c1ccc([N+](=O)[O-])cc1Sc1ccsc1 | -1.6 | 
CN(CCc1ccccc1)C(=O)c1cccc(NC(=O)Cc2cccc(NC(=O)C3CCCN(C(=O)C4CCC4)C3)c2)c1 (stereo not drawn) | 1.49 | 
CN(C(=O)c1cccc(NC(=O)Cc2ccc(NC(=O)C3CCCN(C(=O)C4CC4)C3)cc2)c1)C1CC1 (stereo not drawn) | 5.33 | 

Structure (SMILES) | inhibition of complex formation [%] | Potency
C=CCN1C=C(C(=O)c2ccccc2)C(=O)CC1 | 1.13 | 
Cc1nc(Nc2ccccc2C)c2cnn(C)c2n1 | 0.799 | 
O=C(c1cccc(S(=O)(=O)N2CCCCCC2)c1)N1CCN(Cc2ccccc2)CC1 | 2.11 | 
C=CCOC(=O)N1CCC2CC1c1cc(-c3ccc(OC)cc3)ccc12 (stereo not drawn) | -2.77 | 
O=C(NCCc1ccccc1)c1c[nH]c2ccc(F)cc2c1=O | -0.0045 | 
COc1ccc(CCC(=O)Nc2ccc(Cl)c(S(=O)(=O)N3CCOCC3)c2)cc1OC | -0.735 | 
O=C(CNC(=O)c1cc(S(=O)(=O)N2CCOCC2)ccc1N1CCCC1)Nc1ccc(F)c(F)c1 | 0.285 | 
Cc1ccc(NC(=O)C(C)OC(=O)C2CC3CCCC(C2)C3=O)cc1S(=O)(=O)N1CCOCC1 (stereo not drawn) | -0.445 | 
Cn1cc(C2OC(=O)c3ccccc32)c2ccccc21 (stereo not drawn) | -2.51 | 
O=C(Nc1ccc(S(=O)(=O)N2CCOCC2)cc1)C1CCN(S(=O)(=O)c2ccc(Cl)cc2)CC1 | -0.232 | 
CC1C(C)N(C(=O)CCl)c2ccccc2N1C(=O)CCl (stereo not drawn) | 2.49 | 
NS(=O)(=O)c1ccc(CCNC(=O)c2ccc(Cl)c(S(=O)(=O)N3CCCCCC3)c2)cc1 | -0.982 | 
O=C1c2ccccc2C(=O)N1CCCCCCN1C(=O)c2ccccc2C1=O | -4.66 | 
CC(C)C[C@H]1CN([C@@H](CC(C)C)CN2CCC[C@@H]2CN2C(=O)C(=O)NC[C@@H]2Cc2ccccc2)C(=O)C(=O)N1CCc1ccccc1 | -4.53 | 
COc1ccc(-c2ccc3c(c2)C2CC3CCN2CCC#N)cc1 (stereo not drawn) | -0.906 | 
CN(C)C(CNC(=O)c1cc2ccccc2o1)c1ccccc1 (stereo not drawn) | 0.201 | 
CCCCNC1(C#N)CCN(Cc2ccccc2)CC1 | -0.281 | 
NC(=O)C1(Nc2ccccc2Cl)CCCC1 | 1.43 | 
COc1ccc(S(=O)(=O)N2CCc3ccccc32)cc1C(=O)Nc1cc(S(C)(=O)=O)ccc1Cl | 1.2 | 
Cc1cc(NC(=O)C(C)SCC(=O)Nc2cccc(S(=O)(=O)N3CCCCCC3)c2)no1 (stereo not drawn) | -13.4 | 
NC(=O)c1ncn([C@@H]2O[C@H](CN=C3NS(=O)(=O)c4ccccc43)[C@@H](O)[C@H]2O)n1 | 0.0699 | 
Cc1cc([N+](=O)[O-])c(=O)[nH]c1C | -4.18 | 

Structure (SMILES) | inhibition of complex formation [%] | Potency
O=C1OC(Cc2ccccc2)C(c2ccccc2)C1=O (stereo not drawn) | 1.66 | 
O=C(Nc1ccn(CCCNCc2ccc3[nH]ccc3c2)c(=O)n1)OCc1ccccc1 | 1 | 
CCCCNCCS(=O)(=O)NCc1ccccc1 | -2.8 | 
CNc1nc(=O)n(C2CCCO2)cc1C (stereo not drawn) | -3.1 | 
S=C(Nc1ccccc1)Nc1ccc2ccccc2c1 | -0.599 | 
COc1ccc(S(=O)(=O)N2C[C@H]3CON(C)[C@H]3C[C@H]2c2cccc(Br)c2)cc1 | 1.49 | 
Cc1ccc(-c2csc(C(C#N)=C(O)CN3CCN(C(=O)c4ccco4)CC3)n2)cc1 | -1.82 | 
Cc1ccc(S(=O)(=O)N2CCC(C(=O)N3CCCCCCC3)CC2)cc1 | 4.24 | 
CCCCC(=O)NC(c1ccc(OC)c(OC)c1)c1ccc2cccnc2c1O (stereo not drawn) | 1.17 | 
CCC1(C)COC(c2ccc(OC)c(OC)c2)OC1 (stereo not drawn) | 0.785 | 
CCC(C)C1(C2CCCC2)NC(=O)NC1=O (stereo not drawn) | -3.68 | 
Cc1nn(-c2ccc(F)cc2)c(Cl)c1/C=C(/CCC(=O)O)c1nc2ccccc2s1 | -3.7 | 
COc1cc(OC)c(C(=O)NNC(=O)c2ccc(NS(=O)(=O)c3cccs3)cc2)cc1OC | -0.772 | 
CC(=O)OCC1(O)CC23CCC4c5ccoc5CCC4(C)C2CCC1C3 (stereo not drawn) | 0.228 | 
CC1CCCN(C(=O)Cn2c(=O)oc3cc(S(=O)(=O)N4CCCCC4C)ccc32)C1 (stereo not drawn) | -0.022 | 
CCCCN(C(=O)CSCc1ccc(C)cc1)c1c(N)n(Cc2ccccc2)c(=O)[nH]c1=O | -2.96 | 
OCC1(CO)CC2(C1)CC(CO)(CO)C2 | 2.26 | 
Cc1ccc(S(=O)(=O)CCC(=O)Nc2nnc(CC(C)C)s2)cc1 | -0.478 | 
Cc1ccc(S(=O)(=O)CC(=O)Nc2nnc(C)s2)cc1 |  | 65.1 µM (active)
Cc1ccc(S(=O)(=O)CC(=O)Nc2sc(C)c(C)c2C(N)=O)cc1 | -2.87 | 
